Values quoted from earlier work in patent publication US7235142B2, “Non-toxic corrosion-protection rinses and seals based on cobalt” (University of Dayton, priority 2002, dated 2007).

Details: pH 7

F[Si-2](F)(F)(F)(F)F.[Sr+2] [Strontium hexafluorosilicate]
Solubility in Water: 1.3 × 10^−1^ mole/L
